We go through one molecule from patent publication US20170008959A1 (AbbVie / Abbott, published 2017).

As usually defined, the EC50 is the concentration at which the effect is half-maximal. Low values mean an effect from little substance, high ones a need for much substance.

This assay deals with T1, sRAGE-6×HIS (AA 23-352, NP_001127) (human, UniProt Q15109 23-331).
T1 construct: range 23-352; Printed as a fusion protein with limits 23-352 on NP_001127; also called human sRAGE-6×HIS; RAGE receptor; not shown: 6×HIS tag
The assay can be described thus: AlphaScreen, biotinylated peptide and sRAGE-6×HIS. The protocol: The entire homogeneous assay was carried out in 25 mM HEPES, 100 mM NaCl of pH 7.4 and 0.1% BSA in a volume of 20 μl.
The individual components were brought together in a defined time sequence. […] The various amounts of peptide were then added in order, after a further 30 minutes, to add the donor beads. After a further 60 minutes, the fluorescence was measured in the AlphaQuest instrument from Perkin-Elmer with a time lag of one second. Each measured point was determined as triplicate. The analysis and graphical workup of the results took place with the GraphPrism 4.0 software package.

B1: NtermR31 (peptide)
peptide: QNITARIGEPLVLKCKGAPKKPPQRLEWKLN
modifications: biotinylated (position not given) in the ELISA of embodiment 1 and in the AlphaScreen assay; unlabelled in dot blot, AP-Nogo66 competition and ACR assay
notes: also called Nterm 31; Nterm31
With B1, a half-maximal response (EC50) required 62 nM.
